# In patent US20100129478A1, “Plant Extracts and Methods and Uses Therefore” (priority 2005, published 2010):
# Test system: 3T3-L1 adipocytes
# Test: Glucose uptake assay (tritiated deoxyglucose uptake by 3T3-L1 adipocytes)
# Assay type: cell-based
# Settings: for Stimulation Index: (mean of sample − mean of cells alone)/mean of cells alone; for cpm Average (glucose up-take): average of Sets I-III
# Procedure: The deoxy-glucose uptake assay by fat cells or adipoctes (3T3-L1) help to identify the extracts/bioactives that helps to increase the glucose uptake by the fat cells.
# Tritiated deoxyglucose uptake by 3T3-L1 is one of the most accepted assay for the in-vitro screening of active principles with anti-diabetic activity
# 3T3-L1 fibroblasts were cultured in DME-F12 media containing 10% FCS, NEAA, glutamine, antibiotics, anti-mycotics, etc., in an atmosphere of 5% CO2 at 37° C. Fibroblasts were cultured up to confluency. Subcultures were done at three-day intervals with trypsin-EDTA solution treatment.
# Differentiation was induced by treating the cells with DMEM hi glucose (4.5 gm/litre) containing 0.5 mmol/l 3-isobutyl-1-methylxanthine, 4 mg/ml dexamethasone, 1 mg/ml insulin and 10% FCS for 48 h. The cells were cultured in DMEM media with standard pre-described supplements for the next 6-10 days. […] These were taken up for glucose uptake studies with tritiated glucose.
# Distribute 50,000 of differentiated 3T3-L1 adipocytes in each well of a new 96 well plate. Incubate with KRH buffer at 37° C. for 10 min. Add insulin 10 nM, 25 nM and 50 nM to the respective. To the experimental sets treatment was done with or without insulin 10 nM in presence of test compound (333.0 μg). This was followed by incubation further at 37° C. for 15 min. Wash the cells once with KRH buffer. Initiate glucose uptake reaction by adding 0.1 mM 2-deoxy glucose containing 2-deoxy[3H] glucose (final concentration 12.2 kBq/ml). Incubate for 1 hr at 37° C. Terminate assay by adding 40 μM Cytochalasin B. Wash the cells trice with ice-cold KRH buffer Solubilize cells in 20 μl 1% Triton X. Incubate for 10 min at 37° C. Count radioactivity on a micro-titre plate radioactive counter
# Glucose uptake activity was analyzed by measuring the uptake of 0.1 mM deoxy-glucose containing deoxy-tritiated-glucose containing 2.2 kBq/mL.
substance,measurement,setting,value
insulin,Stimulation Index,Insulin 10 nM,2.6
same,cpm Set I (glucose up-take),Insulin 10 nM,2185.8 cpm
same,cpm Set II (glucose up-take),Insulin 10 nM,1705.4 cpm
same,cpm Set III (glucose up-take),Insulin 10 nM,3010.7 cpm
same,cpm Average (glucose up-take),Insulin 10 nM,2300.63 cpm
same,Stimulation Index,Insulin 25 nM,2.8
same,cpm Set I (glucose up-take),Insulin 25 nM,4806.8 cpm
same,cpm Set II (glucose up-take),Insulin 25 nM,1399.7 cpm
same,cpm Set III (glucose up-take),Insulin 25 nM,996.7 cpm
same,cpm Average (glucose up-take),Insulin 25 nM,2401.07 cpm
same,Stimulation Index,Insulin 100 nM,3.7
same,cpm Set I (glucose up-take),Insulin 100 nM,2906.5 cpm
same,cpm Set II (glucose up-take),Insulin 100 nM,3776.6 cpm
same,cpm Set III (glucose up-take),Insulin 100 nM,2215.6 cpm
same,cpm Average (glucose up-take),Insulin 100 nM,2966.23 cpm
